Literature values as cited in publication PMC10779255, “Novel Hydroxamic Acids Containing Aryl-Substituted 1,2,4- or 1,3,4-Oxadiazole Backbones and an Investigation of Their Antibiotic Potentiation Activity” (International Journal of Molecular Sciences, 2023).

Test system: P. aeruginosa
Settings: cited from earlier work

CCCc1cc(C2=N[C@@H](C(=O)NO)CO2)cc(OC)c1OC [L-161,240]
effect on growth and in vitro activity of P. aeruginosa: no effect
